The test concerns the target human NAMPT enzyme (His-hNAMPT) (Homo sapiens (Human), UniProt P43490). As to the kind of experiment: NAMPT enzymatic inhibition assay (fluorescence, NADH product). The conditions noted are these: read-out: NAMPT IC50 (μM) [HDB].

Amino acid sequences for entries named in this document (tags omitted).
UniProt P43490, whole entry: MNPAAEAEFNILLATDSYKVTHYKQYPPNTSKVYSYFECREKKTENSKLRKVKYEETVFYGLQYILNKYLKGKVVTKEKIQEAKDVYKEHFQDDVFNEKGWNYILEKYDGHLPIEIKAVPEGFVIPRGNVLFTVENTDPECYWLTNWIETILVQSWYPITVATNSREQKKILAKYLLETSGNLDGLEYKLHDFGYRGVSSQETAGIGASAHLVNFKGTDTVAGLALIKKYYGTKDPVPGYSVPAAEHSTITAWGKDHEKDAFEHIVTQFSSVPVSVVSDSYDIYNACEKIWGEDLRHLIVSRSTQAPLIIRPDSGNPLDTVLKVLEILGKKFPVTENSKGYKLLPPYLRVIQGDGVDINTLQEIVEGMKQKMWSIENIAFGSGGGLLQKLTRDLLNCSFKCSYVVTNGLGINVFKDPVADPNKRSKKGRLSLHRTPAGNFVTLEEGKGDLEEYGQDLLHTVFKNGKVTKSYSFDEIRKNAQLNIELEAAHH

SMILES strings stand for the structures.

Take `O=C(/C=C/c1cccnc1)NCCC1C2CN(c3ccccc3)C(=O)C12` (single isomer, unassigned): the IC50 fell in the range of 0.01 to 0.49 µM.
